Test [1] has as its target 293T-Dual hSTING-R232 cells (Homo sapiens, UniProt Q86WV6, H232R). The experiment in a line: 293T R232 cell reporter assay (HEK 293T reporter assay). It is filed as cell-based.
For a further test, the system named is CT26 colon carcinoma. The experiment in a line: CT26 mouse colon carcinoma in vivo efficacy study, intratumoral dosing. To be noted: tested form: disodium salt; for Cure Rate (TV < 10 mm^3) / Treatment Failure (TV > 2000 mm^3): 3 times, three days apart, BALB/c mice. As to the method:
The in vivo antitumoral activity of compounds of Formula (I) were studied in the mouse CT26 colon carcinoma model. 10 female 9-week old BALB/c mice/group were implanted subcutaneously with 3×10^5 cells on the flank. Caliper measurements to assess the tumor volume (TV) and body weight measurements were performed daily for the first 8 days and biweekly thereafter until the end of the study. Dosing started when the tumor volumes reached a size of 100 mm^3. The compounds of Formula (I) were tested in two separate studies with their respective vehicle control. Compounds of Formula (I) were dosed 3 times, three days apart, intratumorally at either 25 or 100 μg. The human endpoint is predefined as a TV of 2000 mm^3.

Chains of the proteins cited; added tags and fusions are not shown.
UniProt Q86WV6, whole entry H232R: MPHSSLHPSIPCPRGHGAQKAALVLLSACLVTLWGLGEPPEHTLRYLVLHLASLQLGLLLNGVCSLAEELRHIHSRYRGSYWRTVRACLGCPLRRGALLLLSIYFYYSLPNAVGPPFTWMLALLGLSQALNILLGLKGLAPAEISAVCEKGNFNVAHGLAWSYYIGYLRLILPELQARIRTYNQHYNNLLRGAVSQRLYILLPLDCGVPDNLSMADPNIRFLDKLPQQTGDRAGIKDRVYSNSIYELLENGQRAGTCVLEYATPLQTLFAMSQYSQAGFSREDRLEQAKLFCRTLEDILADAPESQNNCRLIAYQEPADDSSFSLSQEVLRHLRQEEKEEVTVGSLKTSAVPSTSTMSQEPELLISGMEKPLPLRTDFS

Setting [2] is: read-out: EC50 [μM] IRF reporter, digitonin 10 μg/mL, 30 min exposure, 20 h incubation, alkaline phosphatase reporter, tested form: Na salt.
The mark [3] stands for this setting: read-out: EC50 [μM] IRN-β reporter, digitonin 10 μg/mL, 30 min exposure, 20 h incubation, luciferase reporter, tested form: Na salt.
Setting [4] is: read-out: EC50 [μM] IRF reporter, digitonin 10 μg/mL, 30 min exposure, 20 h incubation, alkaline phosphatase reporter, tested form: disodium salt.
Setting [5] is: read-out: EC50 [μM] IRN-β reporter, digitonin 10 μg/mL, 30 min exposure, 20 h incubation, luciferase reporter, tested form: disodium salt.
[6] abbreviates: three intratumoral doses of 100 g, 10 mice/group.

Where two headings read alike, the source gives them in different places.

Turning to `Nc1nc2c(nnn2C2OC3COP(=O)(S)OC4C(O)C(n5cnc6c(N)ncnc65)C5CC54COP(=O)(O)OC2C3O)c(=O)[nH]1` (stereo not shown), the EC50 was less than 0.25 µM in test [1] (setting [2]) and 0.25 to 100 µM in test [1] (setting [3]).

For the compound `Nc1nc2c(ncn2C2OC34COC2C3OP(=O)(O)OCC23CC2C(n2cnc5c(N)ncnc52)C(O)C3OP(=O)(S)OC4)c(=O)[nH]1` (stereo not shown) [Compound 1-21b], the EC50 in test [1] (setting [4]) and in test [1] (setting [5]) was 0.25 to 100 µM in each case.

Regarding `Nc1nc2c(ncn2[C@@H]2O[C@]34COP(=O)(O)O[C@H]5[C@H]6OC[C@]5(COP(=O)(S)O[C@@H]2[C@@H]3C4)O[C@H]6n2cnc3c(N)ncnc32)c(=O)[nH]1` (single isomer, unassigned), the EC50 in test [1] (setting [2]) and in test [1] (setting [3]) was less than 0.25 µM each time.

Turning to `CO[C@H]1[C@H]2OP(=O)(O)OC[C@H]3O[C@@H](c4scc5c(N)ncnc45)C[C@@H]3OP(=O)(O)OC[C@H]1O[C@H]2n1cnc2c(=O)[nH]c(N)nc21`, the EC50 in test [1] (setting [2]) and in test [1] (setting [3]) was less than 0.25 µM throughout.

As to `COC1C2COP(=O)(S)OC3C(COP(=O)(O)OC1C(n1cnc4c(=O)[nH]c(N)nc41)O2)C1CC1(n1cnc2c(N)ncnc21)C3O` (stereo not shown) [Compound 1-16a], the EC50 in test [1] (setting [4]) and in test [1] (setting [5]) was less than 0.25 µM in each case.

On to `CO[C@H]1[C@H]2OP(=O)(O)OC[C@H]3O[C@@H](n4cnc5c(N)ncnc54)[C@H](F)[C@@H]3OP(=O)(O)OC[C@H]1O[C@H]2c1snc2c(=O)[nH]c(N)nc12`, for which the EC50 in test [1] (setting [4]) was less than 0.25 µM. Moreover, the EC50 in test [1] (setting [5]) is less than 0.25 µM. In addition, in the test with CT26 colon carcinoma (25 μg intratumorally), the “Cure Rate (TV < 10 mm^3)” value was 20% and the “Treatment Failure (TV > 2000 mm^3)” value was determined as 80%. Also, in the test with CT26 colon carcinoma (100 μg intratumorally), the “Cure Rate (TV < 10 mm^3)” value is 90% and the “Treatment Failure (TV > 2000 mm^3)” value is given as 10%. Also, the “animals with delayed tumor growth” value in the test with CT26 colon carcinoma (three intratumoral doses of 25 g, 10 mice/group, compared to vehicle control) is listed as 8 animals. Moreover, in the test with CT26 colon carcinoma (three intratumoral doses of 25 g, 10 mice/group), the “animals tumor-free (no measurable tumors) at the end of the study” value was “two”. For the same compound, in the test with CT26 colon carcinoma (setting [6]), the “animals reaching a TV=2000 mm^3” value is reported as “one” and the “tumor-free animals at the end of the study” value is recorded as 9 out of 10.

As to `COC1C2COP(=O)(S)OC3C(O)C(n4cnc5c(N)ncnc54)C4CC43COP(=O)(O)OC1C(n1cnc3c(=O)[nH]c(N)nc31)O2` (single isomer, unassigned), the EC50 in test [1] (read-out: EC50 [μM] IRF reporter, digitonin 10 μg/mL, 30 min exposure, 20 h incubation, alkaline phosphatase reporter, tested form: sodium salt) is less than 0.25 µM; in test [1] (read-out: EC50 [μM] IRN-β reporter, digitonin 10 μg/mL, 30 min exposure, 20 h incubation, luciferase reporter, tested form: sodium salt), less than 0.25 µM.

For the origin of these results see patent publication US11787833B2, “Modified cyclic dinucleoside compounds as sting modulators” (ALIGOS THERAPEUTICS, INC., priority 2019, dated 2023).
